The test concerns Vasoactive intestinal polypeptide receptor 1. Put plainly: Binding affinity to human VIP1 receptor assessed as inhibition of control specific binding at 10 uM.

Here are results for 1 compound from ChEMBL document CHEMBL3612012, “Identification of orally-bioavailable antagonists of the TRPV4 ion-channel” (Bioorg Med Chem Lett, 2015).

SMILES strings stand for the structures.

For `CC(C)N1CCN(S(=O)(=O)c2ccc(NC(=O)c3ccc(C(F)(F)F)cc3[N+](=O)[O-])cc2)CC1`, the inhibition (in general, the change of the read-out against control, counted positive when it falls) was 2%.
